The numbers were not newly measured in patent US8975279B2, “Amine salts of laquinimod” (Teva Pharmaceutical Industries, Ltd., priority 2012, dated 2015), which cites them from elsewhere.

Molecules are shown by their SMILES. Where a name gives a salt, the structure may show the parent alone.

The conditions of this data set: pH not given; cited from earlier work.

Turning to `Oc1cc(Cl)ccc1Oc1ccc(Cl)cc1Cl` [triclosan sodium salt], the solubility was 5950 µg/mL.

Broadly, the solubility is the dissolved amount per volume that the medium holds.
